Measured values as given in patent US6071925A (priority 1997, dated 2000).

The chains behind the UniProt entries cited, without tags or fusion partners. Where a name states a change or a piece, a line headed by the entry shows the natural chain unless it says otherwise.
UniProt P35370: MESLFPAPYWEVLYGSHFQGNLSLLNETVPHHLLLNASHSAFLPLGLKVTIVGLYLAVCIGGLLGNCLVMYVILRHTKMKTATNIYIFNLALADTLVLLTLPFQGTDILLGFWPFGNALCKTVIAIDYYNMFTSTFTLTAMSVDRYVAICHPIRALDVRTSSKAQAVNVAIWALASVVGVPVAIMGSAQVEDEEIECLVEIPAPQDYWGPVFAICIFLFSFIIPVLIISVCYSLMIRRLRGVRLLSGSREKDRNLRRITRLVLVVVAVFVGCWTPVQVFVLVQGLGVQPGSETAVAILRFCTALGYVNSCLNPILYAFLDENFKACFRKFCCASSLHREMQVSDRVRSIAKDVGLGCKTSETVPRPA

Molecular target: rat OFQ receptor (Rattus norvegicus, UniProt P35370)
Assay: OFQ-R binding assay ([3H]-OFQ competition, 293s-OFQ-R membranes)
Conditions: membranes of HEK-293s cells transfected with rat OFQ receptor, Ki from IC50 by Cheng and Prusoff

SMILES	affinity to the OFQ-receptor, given as pKi
CC(=O)N1CN(c2ccccc2)C2(CCN(C3CCc4c(Cl)ccc(Cl)c4C3)CC2)C1=O (centres unmarked)	8.0
Cl.O=C1N(Cc2ccccc2)CN(c2ccccc2)C12CCN(C1CCc3c(Cl)ccc(Cl)c3C1)CC2 (centres unmarked)	7.9
